Source: PMC10786919, “Design-rules for stapled peptides with in vivo activity and their application to Mdm2/X antagonists” (Nature Communications, 2024)
Converted amounts (≈) assume the structure as drawn. Like-named read-outs stand apart in the source and are kept apart here.

Amino acid sequences for entries named in this document (tags omitted). Chains listed by the source or under a name are the forms on record and can include a tag or linker.
UniProt Q00987, with tags, fused parts or gaps: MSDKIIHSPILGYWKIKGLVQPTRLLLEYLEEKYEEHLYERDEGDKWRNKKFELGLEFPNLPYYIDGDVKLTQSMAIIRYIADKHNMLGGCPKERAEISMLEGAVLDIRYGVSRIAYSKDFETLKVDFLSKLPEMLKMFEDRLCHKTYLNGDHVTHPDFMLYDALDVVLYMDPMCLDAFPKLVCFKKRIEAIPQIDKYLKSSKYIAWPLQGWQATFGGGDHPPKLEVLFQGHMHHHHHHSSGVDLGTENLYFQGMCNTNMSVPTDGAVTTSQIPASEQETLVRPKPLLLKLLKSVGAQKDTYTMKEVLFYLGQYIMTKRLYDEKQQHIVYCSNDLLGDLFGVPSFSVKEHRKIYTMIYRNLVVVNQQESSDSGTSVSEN

Tests used:
[1] = Experimental LogD (partition coefficient)
[2] = Lactate dehydrogenase (LDH) release assay; format: cell-based
[3] = tested on: HCT116 cells; assay: Lactate dehydrogenase (LDH) release assay; format: cell-based
[4] = Nanoclick permeability assay
[5] = Solubility assay (kinetic solubility, PBS pH 7); format: physicochemical; conditions: for solubility kinetic: kinetic from dmso stock
[6] = EPSA; format: physicochemical
[7] = Circular dichroism (CD) helicity; format: physicochemical
Description: A total of 5 µL of the 10 mM stock peptide was mixed with 45 µL of 100% methanol, and dried for 2 h in the SpeedVac concentrator (Thermo Scientific). The dried peptide was reconstituted in a buffer (1 mM Hepes pH 7.4 and 5% methanol) to a concentration of 1 mM. The peptide sample was placed in a quartz cuvette with a path length of 0.2 cm. The peptide concentration was determined by the absorbance of the peptide at […]. The CD spectrum was recorded from 300 to 190 nm using the Chirascan-plus qCD machine (Applied Photophysics, Surrey, UK), at 25 °C. All experiments were done in duplicates. The CD spectrum was converted to mean residue ellipticity before deconvolution and estimation of the secondary structure components of the peptide using the CDNN software (distributed by Applied Photophysics). Measurements were taken at least twice and were reported as arithmetic means.

[8] = tested on: Jump-In T-REx CHO-K1 BLA cells; format: cell-based
Description: This assay was based on Jump-In™ T-REx™ CHO-K1 BLA cells containing a stably integrated β-lactamase under the control of an inducible cytomegalovirus (CMV) promoter. Cells were maintained in Dulbecco’s […] Eagle Medium (DMEM) with 10% fetal bovine serum (FBS), Blasticidin, and Penicillin/Streptomycin and then transferred to 1.5 ml freezing vials and stored under liquid nitrogen in growth media containing 5% DMSO. […] Cells were seeded into a 384-well plate at a density of 4000 cells per well. Peptides were then dispensed to each well using a liquid handler, ECHO 555 and incubated for 16 h. The final working concentration of DMSO was 0.5%. β-lactamase activity was detected using the ToxBLAzer Dual Screen (Invitrogen), as per the manufacturer’s instructions. Measurements were carried out using the Envision multiplate reader (Perkin–Elmer). Counterscreen activity was defined as the amount of β-lactamase activity induced by tetracycline. Measurements were taken a minimum of three times (biological replicates) and values are reported as geometric means of the replicates.

[9] = biological target: T1, human Mdm2 1–125 (Homo sapiens, UniProt Q00987); assay: Mdm2 binding by competitive fluorescence anisotropy assay (FP binding)
T1 construct: GST (N); His6 (internal); TEV cleavage site (ENLYFQG) (internal); made in house; host or cells: BL21 (DE3) Rosetta T1R Escherichia coli

[10] = tested on: p53 responsive β-lactamase reporter in HCT116 cells; format: cell-based
[11] = physchem
[12] = tested on: Ca Ski cell line
[13] = tested on: CellSensor p53RE-bla HCT-116 Cell Line
[14] = 0% FBS 4Hr, read-out: LDH: Cytotoxicity assay EC50
[15] = 0% FBS 16Hr, read-out: LDH: Cytotoxicity assay EC50
[16] = 10% FBS 4Hr, read-out: LDH: Cytotoxicity assay EC50
[17] = 10% FBS 16Hr, read-out: LDH: Cytotoxicity assay EC50
[18] = 0% FBS 4Hr, read-out: TETCHO: Counterscreen EC50
[19] = 0% FBS 16Hr, read-out: TETCHO: Counterscreen EC50
[20] = 10% FBS 4Hr, read-out: TETCHO: Counterscreen EC50
[21] = 10% FBS 16Hr, read-out: TETCHO: Counterscreen EC50
[22] = 4 hours, 0% serum, read-out: TETCHO Counterscreen EC50
[23] = FP binding assay KD, Tween-20 <CMC
[24] = 0% FBS 4Hr, read-out: p53 reporter assay EC50
[25] = 0% FBS 16Hr, read-out: p53 reporter assay EC50
[26] = 10% FBS 4Hr, read-out: p53 reporter assay EC50
[27] = 10% FBS 16Hr, read-out: p53 reporter assay EC50
[28] = read-out: Cell EC50 (16 hr, 10% FBS), p53 reporter assay, 16 hr, 10% FBS
[29] = 4 hours, 0% serum, read-out: LDH Cytotoxicity assay EC50

CC(=O)N[C@@H](CCCCN=[N+]=[N-])C(=O)NCCC(=O)N[C@@H](CC(C)C)C(=O)N[C@H](C(=O)N[C@@H](C)C(=O)N[C@]1(C)CCCCCCC=CCCC[C@@](C)(C(=O)N[C@@H](CO)C(=O)N[C@@H](C)C(=O)N[C@@H](C)C(N)=O)NC(=O)[C@H](CC(C)C)NC(=O)[C@H](CCC(N)=O)NC(=O)[C@H](C)NC(=O)[C@H](Cc2c[nH]c3ccccc23)NC(=O)[C@H](Cc2ccc(O)cc2)NC(=O)[C@H](CCC(=O)O)NC1=O)[C@@H](C)O [MP-624]
logD [1]: 2.5 | EC50 ([2]; 0% FBS 4Hr, read-out: LDH: Cytotoxicity assay: EC50): > 50.7 µM | EC50 ([2]; 0% FBS 16Hr, read-out: LDH: Cytotoxicity assay: EC50): > 50.7 µM | EC50 ([2]; 10% FBS 4Hr, read-out: LDH: Cytotoxicity assay: EC50): > 50.7 µM | EC50 ([2]; 10% FBS 16Hr, read-out: LDH: Cytotoxicity assay: EC50): > 50.7 µM | LDH: Cytotoxicity assay: % Effect ([3]; 0% FBS 4Hr): -4.364% | LDH: Cytotoxicity assay: % Effect ([3]; 0% FBS 16Hr): 13.34% | LDH: Cytotoxicity assay: % Effect ([3]; 10% FBS 4Hr): 1.301% | LDH: Cytotoxicity assay: % Effect ([3]; 10% FBS 16Hr): 7.342% | cell entry EC50 [4]: 0.569 µM | solubility kinetic ([5]; aqueous buffer, pH 7, PBS): 150 µM (≈ 282 µg/mL) | EPSA [6]: 196 A^2

CC(C)C[C@@H](NC(=O)[C@@]1(C)CCCC=CCCC[C@@](C)(NC(=O)[C@@H](C)NC(=O)[C@@H](Cc2ccc(O)cc2)NC(=O)[C@@H](Cc2c[nH]c3cc(F)ccc23)NC(=O)[C@@H](C)NC(=O)[C@H](N)[C@H](C)O)C(=O)N[C@H](Cc2ccc(C(F)(F)F)cc2)C(=O)N[C@H](CCC(=O)O)C(=O)N[C@H](CCCCN)C(=O)N1)C(=O)N[C@H](CCCNC(=N)N)C(N)=O [MP-769, ^dPMI-d(6-10 staple), reference compound]
logD ([1]; not stated, Partition Coeff LogD): 2.27 | CD % Helicity [7]: 38.54% | EC50 [2, 14]: 15.3 µM | EC50 [2, 15]: 12.7 µM | EC50 [2, 16]: 21.1 µM | EC50 [2, 17]: 12.6 µM | LDH: Cytotoxicity assay % Effect ([3]; 0% FBS 4Hr): 88.97% | LDH: Cytotoxicity assay % Effect ([3]; 0% FBS 16Hr): 92.27% | LDH: Cytotoxicity assay % Effect ([3]; 10% FBS 4Hr): 89.76% | LDH: Cytotoxicity assay % Effect ([3]; 10% FBS 16Hr): 117.4% | TETCHO: Counterscreen % Effect ([8]; 0% FBS 4Hr): 90.98% | EC50 [8, 18]: 10.7 µM | TETCHO: Counterscreen % Effect ([8]; 0% FBS 16Hr): 119.8% | EC50 [8, 19]: 17.9 µM | TETCHO: Counterscreen % Effect ([8]; 10% FBS 4Hr): 8.564% | EC50 [8, 20]: > 50.4 µM | TETCHO: Counterscreen % Effect ([8]; 10% FBS 16Hr): 19.05% | EC50 [8, 21]: > 50.4 µM | EC50 [8, 22]: 11 µM | Kd ([9]; Binding KD): 0.12 µM | Kd [9, 23]: 0.118 µM | p53 reporter assay % Effect ([10]; 0% FBS 4Hr): 107.8% | EC50 [10, 24]: 10.1 µM | p53 reporter assay % Effect ([10]; 0% FBS 16Hr): 137.7% | EC50 [10, 25]: 20 µM | p53 reporter assay % Effect ([10]; 10% FBS 4Hr): 42.39% | EC50 [10, 26]: 36.8 µM | p53 reporter assay % Effect ([10]; 10% FBS 16Hr): 9.47% | EC50 [10, 27]: > 50.4 µM | Cell EC50 (16 hr, 10% FBS), p53 reporter assay ([10]; 16 hr, 10% FBS): inactive | EC50 [10, 28]: > 50 µM | solubility kinetic ([5]; pH 7, aqueous buffer, pH 7, PBS): 74 µM (≈ 120 µg/mL)

CC(C)C[C@H]1NC(=O)[C@@H](CCCCN)NC(=O)[C@@H](CCC(=O)O)NC(=O)[C@@H](Cc2ccc(C(F)(F)F)cc2)NC(=O)[C@@H](CC(N)=O)NC(=O)[C@@](C)(NC(=O)[C@@H](Cc2ccc(O)cc2)NC(=O)[C@@H](Cc2c[nH]c3cc(F)ccc23)NC(=O)[C@@H](C)NC(=O)[C@H](N)[C@H](C)O)CCCCCCC=CCCC[C@](C)(C(N)=O)NC(=O)[C@@H](CC(C)C)NC1=O [MP-770, ^dPMI-d(5-12 staple), reference compound]
Partition Coeff LogD [1]: Poorly Behaved | EPSA [11]: 223 A^2 | CD % Helicity [7]: 31.76% | EC50 [2, 14]: > 50.7 µM | EC50 [2, 15]: > 50.7 µM | EC50 [2, 16]: > 50.7 µM | EC50 [2, 17]: > 50.7 µM | EC50 [2, 29]: > 50 µM | LDH: Cytotoxicity assay % Effect ([3]; 0% FBS 4Hr): -0.5142% | LDH: Cytotoxicity assay % Effect ([3]; 0% FBS 16Hr): -2.565% | LDH: Cytotoxicity assay % Effect ([3]; 10% FBS 4Hr): -0.7512% | LDH: Cytotoxicity assay % Effect ([3]; 10% FBS 16Hr): 4.487% | TETCHO: Counterscreen % Effect ([8]; 0% FBS 4Hr): 57.28% | EC50 [8, 18]: 15.6 µM | TETCHO: Counterscreen % Effect ([8]; 0% FBS 16Hr): 22.59% | EC50 [8, 19]: > 50.4 µM | TETCHO: Counterscreen % Effect ([8]; 10% FBS 4Hr): -9.087% | EC50 [8, 20]: > 50.4 µM | TETCHO: Counterscreen % Effect ([8]; 10% FBS 16Hr): -10.46% | EC50 [8, 21]: > 50.4 µM | EC50 [8, 22]: > 50 µM | p53 reporter assay % Effect ([10]; 0% FBS 4Hr): 118.4% | EC50 [10, 24]: 13.6 µM | p53 reporter assay % Effect ([10]; 0% FBS 16Hr): 74.34% | EC50 [10, 25]: 17.4 µM | p53 reporter assay % Effect ([10]; 10% FBS 4Hr): 36.59% | EC50 [10, 26]: 39.1 µM | p53 reporter assay % Effect ([10]; 10% FBS 16Hr): 61.04% | EC50 [10, 27]: 30.8 µM | Solubility [5]: P.B. | Solubility ([5]; pH 7, PBS): Poorly Behaved

CC(=O)N[C@@H](C(=O)N[C@H](C)C(=O)N[C@H](Cc1c[nH]c2cc(F)ccc12)C(=O)N[C@H](Cc1ccc(O)cc1)C(=O)N[C@@]1(C)CCCC#CC#CCCCC[C@](C)(C(=O)N[C@H](C)C(=O)N[C@H](C)C(=O)N[C@H](C)C(=O)N[C@H](C)C(=O)N[C@H](C)C(=O)N[C@H](C)C(N)=O)NC(=O)[C@@H](CC(C)C)NC(=O)[C@@H](CC(C)C)NC(=O)[C@@H](CCC(N)=O)NC(=O)[C@@H](CCC(=O)O)NC(=O)[C@@H](Cc2ccc(C(F)(F)F)cc2)NC(=O)[C@@H](CC(N)=O)NC1=O)[C@H](C)O [MP-793]
EC50 ([12]; read-out: Cell Proliferation assay EC50, Ca-Ski, p53 Mut, Ca-Ski): > 49.8 µM | EC50 ([12]; read-out: Proliferation EC50 Ca Ski (Off-target), Ca Ski): > 50 µM | logD [1]: 2.12 | CD % Helicity [7]: 38.85% | EC50 [2, 14]: > 50.7 µM | EC50 [2, 17]: > 50.7 µM | EC50 [2, 29]: > 50 µM | LDH: Cytotoxicity assay % Effect ([3]; 0% FBS 4Hr): 3.611% | LDH: Cytotoxicity assay % Effect ([3]; 10% FBS 16Hr): 3.652% | TETCHO: Counterscreen % Effect ([8]; 0% FBS 4Hr): 4.725% | EC50 [8, 18]: > 50.4 µM | TETCHO: Counterscreen % Effect ([8]; 10% FBS 16Hr): -29.66% | EC50 [8, 21]: > 50.4 µM | EC50 [8, 22]: > 50 µM | Kd ([9]; Binding KD): < 0.001 µM | Kd [9, 23]: < 0.001 µM | p53 reporter assay % Effect ([10]; 0% FBS 4Hr): 112.4% | EC50 [10, 24]: 3.97 µM | p53 reporter assay % Effect ([10]; 10% FBS 16Hr): 62.12% | EC50 [10, 27]: 0.305 µM | higher potency versus MP-770 ([10]; 10% serum, 16-hour assay): > 102 x | EC50 ([10]; read-out: Cell EC50 (4 hr, 0% FBS), p53 reporter assay, 4 hr, 0% FBS): 4 µM | EC50 [10, 28]: 0.3 µM | improved cell proliferation potency compared to MP-042 ([13]; HCT116): > 2 x | EC50 ([13]; read-out: Cell Proliferation assay EC50, HCT116, p53 WT): 0.648 µM | EC50 ([13]; read-out: Proliferation EC50 HCT116 (On-target)): 0.65 µM | solubility kinetic ([5]; aqueous buffer, pH 7, PBS): 9 µM (≈ 19.1 µg/mL)
